The test system of the assay is epidermal growth factor receptor (EGFR) on live A431 cells. Put plainly: Live-cell imaging, quenching and cycling. The format is cell-based. To be noted: 4 s, 405 nm, no washing. The method, then: FIG. 4. Live-cell imaging and cycling. A. Cell viability assay determined for A431 cells incubated with FLASH-off 600 (0.15-40 μM, 72 h). […] B. Live-cell quenching experiments using anti-Cetuximab-FLASH-off 647 (657 nm channel, 6.9 mW cm-2) and line profile quenching (10 s, 405 nm 660 channel 660 μW cm^−2). C. […] Scale bars in B=20 μm and in C=5 μm.
FIG. 22. Live-cell quenching experiments. A. Live A431 cell experiments using Cetuximab-FLASH-off 647 and quenched (4s, 405 nm channel) with no washing steps. B. Zoomed in ROI of panel A showing selective staining of the membrane. C. […] Scale bars A & C=10 m, B=5 μm (n=3).
Cyclic imaging was performed during two cycles of staining to selectively distinguish four immune markers (CD45, MHCII, CD4, and CD8) and their abundance in splenocytes (FIG. 20). Statistical analysis of the total number of stained cells per marker matched previously reported values for murine splenocytes (79% CD45, 32% MHCII, 14% CD4 and 2% CD8 FIG. 20). […] While the above experiments were done in fixed cells, FLASH-off probes were also applied to live cells (cultured epidermoid carcinoma A431) to determine i) toxicity and ii) live cell imaging capabilities. […] Live A431 cells were next incubated with Cetuximab-FLASH-off 650 to stain for the epidermal growth factor receptor (EGFR). Distinctive membrane staining was observed, which co-localized with anti-EGFR-MB488 control. […]

For the substance “Cetuximab-FLASH-off 650: Cetuximab conjugated with FLASH-off 650 to stain EGFR”, the “signal quenching in live cells (in words)” value is given as “complete signal quenching”. The “signal quenching in live cells (in words)” value (listed as Cetuximab-FLASH-off 647) is listed as “efficient quenching effect”.

The values are drawn from patent US20250283800A1, “PROBES FOR FLUORESCENCE IMAGING” (The General Hospital Corporation, priority 2022, published 2025).
